According to patent publication US10835542B2, “9-aminomethyl minocycline compounds and use thereof in treating community-acquired bacterial pneumonia (CABP)” (Paratek Pharmaceuticals, Inc., priority 2016, dated 2020):

Assays:
[1] = Intra-pulmonary (ELF, AC/AM by BAL) and plasma PK after multiple iv doses in healthy adult subjects; assay type: in vivo; details: human, plasma, after the fifth 100 mg iv dose
Description: The purpose of the study was to determine the concentration of Compound 1 in pulmonary compartments (ELF and in pulmonary ACs, including AMs) and define time course of pulmonary distribution in comparison with the plasma pharmacokinetic (PK) profile. Compound 1 was administered intravenously to healthy subjects for 4 days (5 doses) to steady-state systemic concentrations. Subjects were grouped to have BAL at set times after the last dose of drug. Concomitant blood samples were taken to compare tissue with serum antibiotic concentrations. […]
Compound 1 concentrations in ELF and AC were measured at only 1 observation time for each subject, and data from all subjects were pooled for a PK analysis of the mean intrapulmonary concentrations. The concentration of Compound 1 in BAL fluid was normalized by the dilution factor in respect to urea levels detected in plasma and BAL.
One standard bronchoscopy was performed for each subject. Within 1 BAL timepoint group, all subjects were assessed at the same timepoint, either at 0.5, 1, 2, 4, 8, 12, and 24 hours after the last dose administration on Day 4. […]
During the bronchoscopy 4 aliquots of 50 mL each of sterile saline solution were instilled into the right lobe of the lungs, immediately aspirated, and placed on ice. The first bronchioalveolar lavage aliquot instilled (BALX) fraction was prepared and analyzed separately from subsequent instillations. […]

[2] = Food effect on plasma PK of a single 300 mg oral dose, healthy volunteers (4-period crossover); assay type: in vivo, human
Description: Briefly, the study was a phase 1, randomized, open-label 4-period, crossover study. Before dosing on Day 1 of Period 1, subjects were randomized to one of four treatment sequences (see Table 2-1). On Day 1 of each period, subjects received a single oral dose of 300 mg Compound 1 (2×150 mg tablets) at various times after the consumption of food. There was a washout period of at least 5 days between each dosing period. A final study completion visit occurred 6 to 10 days after the last dose of Compound 1.
The high-fat (approximately 50% of total caloric content of the meal) and high-calorie (approximately 800 to 1000 calories) meal followed Food and Drug Administration guidance recommendations, and provided approximately 150, 250, and 500 to 600 calories from protein, carbohydrate, and fat, respectively (FDA Guidance, 2002). These meals were to be consumed within 20 minutes. Dose administration for Treatments B, C, and D was based off of the end time of the meal.
For statistical analysis, individual PK parameters for Compound 1 were summarized with descriptive statistics. Geometric means were determined for AUC and Cmax. PK parameters were evaluated using noncompartmental analysis using Phoenix® WinNonlin® (Pharsight Corp, St. Louis, Mo.), Version 6.2.1. Confidence intervals (CI) for test treatments (fed states: Treatments B, C, and D) compared with the reference treatment (fasted state: Treatment A) were constructed for AUC0-24, AUC0-t, AUC0-inf, and Cmax.

[3] = system: Community-Acquired Bacterial Pneumonia (CABP); assay: Phase 3 CABP study: Early Clinical Response (72-120 h after first dose); assay type: in vivo, human; details: ITT, FIG. 2
[4] = system: Community-Acquired Bacterial Pneumonia (CABP); assay: Phase 3 CABP study: Investigator's Assessment of Clinical Response at PTE; assay type: in vivo, human
[5] = Phase 1 multiple oral dose study: urine PK; assay type: in vivo, human; details: 450 mg, Day 1 (n = 3)
Description: Urine samples were collected from a subset of subjects at specified intervals on Day 5 of Period 2 and on Day 1 and Day 5 of Period: predose, 0 to 4, 4 to 8, 8 to 12, and 12 to 24 hours after dosing. […] Urine samples were only collected from a subset of subjects because analysis of urine PK was added by an amendment to the study protocol after the study was already underway.
Additional parameters Ae0-4, Ae4-8, Ae8-12, Ae12-24, and Ae0-24 were also calculated.

[6] = Phase 1 multiple oral dose (300, 450, 600 mg) study: plasma PK, healthy adult subjects; details: for half-life: human, in vivo, 600 mg, mean half-life in plasma (T1/2); for Mean T1/2: plasma
[7] = Day 1, treatment comparison 450/300
[8] = Day 1, treatment comparison 600/300
[9] = Day 1, treatment comparison 600/450
[10] = Day 5, treatment comparison 450/300
[11] = Day 5, treatment comparison 600/300
[12] = Day 5, treatment comparison 600/450

SMILES: CN(C)c1cc(CNCC(C)(C)C)c(O)c2c1C[C@H]1C[C@H]3[C@H](N(C)C)C(O)=C(C(N)=O)C(=O)[C@@]3(O)C(O)=C1C2=O [Compound 1, 9-[(2,2-dimethyl-propylamino)-methyl]-minocycline]
- clearance ([1]; read-out: clearance, mean ± SD (converted)): 134 mL/min
- half-life ([1]; read-out: elimination half-life, mean ± SD (converted)): 14.7 ± 4.2 h
- AUC0-inf, Ratio of Geometric LS Mean ([2]; B/A): 84.7%
- AUC0-t, Ratio of Geometric LS Mean ([2]; B/A): 83.3%
- Cmax, Ratio of Geometric LS Mean ([2]; B/A): 84.5%
- AUC0-24, Ratio of Geometric LS Mean ([2]; B/A (fed vs fasted)): 83.4%
- AUC0-24, Ratio of Geometric LS Mean ([2]; C/A): 57.7%
- AUC0-inf, Ratio of Geometric LS Mean ([2]; C/A): 58.4%
- AUC0-t, Ratio of Geometric LS Mean ([2]; C/A): 57.7%
- Cmax, Ratio of Geometric LS Mean ([2]; C/A): 60.1%
- AUC0-24, Ratio of Geometric LS Mean ([2]; D/A): 37.3%
- AUC0-inf, Ratio of Geometric LS Mean ([2]; D/A): 37.9%
- AUC0-t, Ratio of Geometric LS Mean ([2]; D/A): 37.9%
- Cmax, Ratio of Geometric LS Mean ([2]; D/A): 40.7%
- non-inferiority relative to moxifloxacin, early clinical response (ECR) [3]: statistical non-inferiority (10% margin)
- non-inferiority relative to moxifloxacin, clinical success at the PTE ([4]; ITT and CE-PTE limited to PORT Risk Class III/IV, FIG. 3): statistical non-inferiority (10% margin)
- non-inferiority relative to moxifloxacin, clinical success at the PTE ([4]; ITT and CE-PTE, FIG. 2): statistical non-inferiority (10% margin)
- Difference (95% CI) in clinical success at PTE ([4]; ITT, actual PORT Risk Class IV): 3.2 (−7.4, 13.4)^[4] %
- Ae0-24, Mean (CV) [5]: 25.06 (16.8) mg
- Fe0-24, Mean (CV) [5]: 5.57 (16.8) %
- half-life (mean) ([6]; Day 1): ~13 h
- AUC0-24/Dose Geometric LS Means ([6]; Day 1, 300 mg): 21.32 ng·h/mL/mg
- AUC0-24/Dose Geometric LS Means ([6]; Day 1, 450 mg): 18.64 ng·h/mL/mg
- AUC0-24/Dose Geometric LS Means ([6]; Day 1, 600 mg): 16.18 ng·h/mL/mg
- AUC0-24/Dose Ratio of Geometric LS Means (%) [6, 7]: 87.44%
- Cmax/Dose Ratio of Geometric LS Means (%) [6, 7]: 86.71%
- AUC0-24/Dose Ratio of Geometric LS Means (%) [6, 8]: 75.89%
- Cmax/Dose Ratio of Geometric LS Means (%) [6, 8]: 73.92%
- AUC0-24/Dose Ratio of Geometric LS Means (%) [6, 9]: 86.79%
- Cmax/Dose Ratio of Geometric LS Means (%) [6, 9]: 85.26%
- half-life (mean) ([6]; Day 5): ~16 h
- AUC0-24/Dose Geometric LS Means ([6]; Day 5, 300 mg): 30.09 ng·h/mL/mg
- AUC0-24/Dose Geometric LS Means ([6]; Day 5, 450 mg): 28.83 ng·h/mL/mg
- AUC0-24/Dose Geometric LS Means ([6]; Day 5, 600 mg): 26.46 ng·h/mL/mg
- AUC0-24/Dose Ratio of Geometric LS Means (%) [6, 10]: 95.82%
- Cmax/Dose Ratio of Geometric LS Means (%) [6, 10]: 88.58%
- AUC0-24/Dose Ratio of Geometric LS Means (%) [6, 11]: 87.95%
- Cmax/Dose Ratio of Geometric LS Means (%) [6, 11]: 80.36%
- AUC0-24/Dose Ratio of Geometric LS Means (%) [6, 12]: 91.78%
- Cmax/Dose Ratio of Geometric LS Means (%) [6, 12]: 90.72%
- half-life ([6]; Day 1, range across 300, 450, 600 mg): 13 to 13.7 h
- half-life ([6]; Day 5, range across 300, 450, 600 mg): 15.5 to 16.8 h
- Mean T1/2 ([6]; oral 300 mg, Day 1 (n = 24)): 13.66 h
- Mean T1/2 ([6]; oral 300 mg, Day 5 (n = 21)): 15.49 h
- Mean T1/2 ([6]; oral 450 mg, Day 1 (n = 23)): 13.45 h
- Mean T1/2 ([6]; oral 450 mg, Day 5 (n = 23)): 16.83 h
- Mean T1/2 ([6]; oral 600 mg, Day 1 (n = 23)): 13.03 h
- Mean T1/2 ([6]; oral 600 mg, Day 5 (n = 21)): 16.75 h
